Target: Nociceptin receptor (Homo sapiens, UniProt P41146)
Experiment: Binding affinity towards Nociceptin/orphanin FQ (N/OFQ) receptor from recombinant HEK293 cell membranes was determined using binding assay

Compound `CCn1c(=O)n([C@@H]2CCN(CC3CCCCCCC3)C[C@H]2CO)c2ccccc21` has a Ki of 2.3 nM.

— ChEMBL document CHEMBL1147615, “Design and synthesis of novel small molecule N/OFQ receptor antagonists” (2004)
